Bioassay records: PubChem BioAssay, several laboratories
In the library only some 2.3% were active in any assay of this set; here they are far more common.
ARFGAP1 inhibitor = rat ARFGAP1 inhibition; Arfgap1-stimulated ARF1 GTP hydrolysis, GDP FP detection; inhibition, % at 16.5 µM; 360,000 compounds, 0.26% hits;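 active = inhibition above a per-plate limit, mean inhibition of low control wells plus 3 SD, cut at about 25% in these data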;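 note: 0% = DMSO wells with enzyme and 100% = wells lacking Arfgap1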
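Replicates: Single well per compound | Assay system: Truncated rat Arfgap1 GAP domain | Control set: No-Arfgap1 wells (100%) versus DMSO full-reaction wells (0%) | Times: Enzyme reaction 120 min at 25 °C after 20 min preincubation | Reagent: Human ARF1(Δ1-17)-GTP substrate | Measured by: Tracer-displacement fluorescence polarization with EDTA stop, 620/688 nm | Measure: Percent inhibition of Arfgap1-stimulated GTP hydrolysis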
MC4R antagonist = blocks human MC4R cAMP signaling; P32245; MC4R-expressing cells, MTII-stimulated cAMP, LANCE TR-FRET; inhibition, % at 6.5 µM; 360,000 compounds, 0.48% hits;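 active = inhibition above its plate's cutoff, the mean of tested wells on that plate plus 3 SD, cut at about 29% in these data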;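 note: 0% = Melanotan II alone and 100% = Melanotan II plus saturating MCL0020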
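Assay system: U2OS-MC4R stable cell line; Also added: Melanotan II; Technique: Eu-cAMP/anti-cAMP TR-FRET, emission 671 nm; Times: 30-min compound, 1-h challenge, 1-h detection, room temperature.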
MC4R barr agon = agonists of human melanocortin 4 receptor (MC4R) beta-arrestin. U2OS MC4R beta-arrestin complementation, luminescence; percent of melanotan II response, DMSO zero. activation, % at 8.9 µM. AID 540308. 360,000 compounds, 0.98% hits. P32245;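 active = activation above a per-plate cutoff, the mean activation of sample wells on that plate plus 3 SD, cut at about 8% in these data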
ASAP1 GAP inh = inhibitors of human ASAP1 ArfGAP activity; Q9ULH1; ASAP1-stimulated ARF1 GTP hydrolysis, GDP FP detection; inhibition, % at 16.5 µM; 360,000 compounds, 0.19% hits; AID 624377; in the data active = inhibition above about 25%;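 note: 0% = vehicle with enzyme and substrate and 100% = no enzyme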
NRP1-CendR mod = NRP-1/CendR interaction modulation; O14786; FAM-RPARPAR peptide binding to NRP-1, fluorescence polarization; inhibition, % at 25 µM; 360,000 compounds, 0.85% hits; AID 602438;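 active = inhibition or corrected inhibition above about 18%, plus a signal ratio from 0.5 to 1.5, limit read from the data, passing the limit was not always enough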
UUG fidelity = modulators of yeast start codon fidelity, primary screen, whole organism, S. cerevisiae, single point, plate reader; S. cerevisiae UUG-firefly luciferase reporter, luminescence/redox ratio; activity score, % at 18.7 µM; 0.13% of 350,000 active; AID 602363, 2012;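 active = replicate mean at a twofold rise or more, about +100% in these data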;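 also: firefly luciferase made from a UUG start codon reports start codon fidelity; reporter light over untreated wells divided by growth signal over untreated wells; some hits fall short of that in this replicate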
cAMP nonselect = U2OS forskolin cAMP inhibition counter-screen | shares compounds with MC4R antagonist | parental U2OS, LANCE TR-FRET | inhibition, % at 6.5 µM | 1,600 compounds, 26% hits | AID 602193;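 active = mean inhibition over triplicates above the low-control well mean plus 3 SD, set per campaign, cut at about 13% in these data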;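 note: signal is single emission at 671 nm which falls as cellular cAMP rises; 0% = forskolin-stimulated wells and 100% = buffer without forskolin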
MC4R antag conf = human MC4R cAMP antagonism confirmation; 1,600 compounds, 27% hits; MC4R-expressing cells, MTII-stimulated cAMP, TR-FRET; AID 602195; inhibition, % at 6.5 µM; shares compounds with MC4R antagonist; in the data active = inhibition above about 29%;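 note: 0% = agonist stimulated wells alone and 100% = agonist stimulated wells plus saturating reference antagonist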
* = called active by the depositor; . = no result given.

| smiles | ARFGAP1 inhibitor | MC4R antagonist | MC4R barr agon | ASAP1 GAP inh | NRP1-CendR mod | UUG fidelity | cAMP nonselect | MC4R antag conf |
| --- | --- | --- | --- | --- | --- | --- | --- | --- |
| COc1ccc(S(=O)(=O)N[C@@H]2CC[C@H](CCNC(=O)Cc3ccccn3)O[C@@H]2CO)cc1 | . | . | . | . | . | 12 | . | . |
| CCOC(=O)c1ccc(NC(=O)N2CCN(c3ccccn3)CC2)cc1 | -6 | -1 | -1 | 7 | 2 | -11 | . | . |
| CCOC(=O)c1ccc(NC(=O)N2CCN(c3cccc(OC)c3)CC2)cc1 | -8 | 29* | 0 | -3 | 0 | -21 | -5 | -6 |
| Cc1noc(C)c1S(=O)(=O)Nc1ccc2c(c1)C(=O)N([C@@H](C)CO)C[C@@H](C)[C@H](CN(C)Cc1ccc(Cl)c(Cl)c1)OCCCC[C@@H](C)O2 | . | . | . | . | . | 18 | . | . |
| O=C(C[C@H]1C=C[C@H](NS(=O)(=O)c2ccc(F)cc2)[C@H](CO)O1)NCc1ccc(Cl)c(Cl)c1 | . | . | . | . | . | -2 | . | . |
| C#CCOCCOCCOCCNc1nc(N2CCN(C(=O)CCCCCCCCCCNC(=O)[C@H](CCCCN)n3cc(C[C@@H](C)CC)nn3)CC2)nc(N2CCN(C(=O)CCCCCCCCCCNC(=O)[C@H](CCCCN)n3cc(C[C@@H](C)CC)nn3)CC2)n1 | . | 75* | 0 | . | 10 | 23 | 34* | 84* |
| C#CCOCCOCCOCCNc1nc(N2CCN(C(=O)CCCCCCCCCCNC(=O)[C@H](CCCCN)n3cc(CCO)nn3)CC2)nc(N2CCN(C(=O)CCCCCCCCCCNC(=O)[C@H](CCCCN)n3cc(CCO)nn3)CC2)n1 | . | 4 | 0 | . | 1 | -3 | . | . |
| CC(C)NC(=O)Nc1ccc2c(c1)C(=O)N([C@H](C)CO)C[C@H](C)[C@H](CN(C)S(=O)(=O)c1cn(C)cn1)OCCCC[C@H](C)O2 | . | . | . | . | . | -1 | . | . |

2 neighbouring compounds already listed, quoted:
| smiles | ARFGAP1 inhibitor | MC4R antagonist | MC4R barr agon | ASAP1 GAP inh | NRP1-CendR mod | UUG fidelity | cAMP nonselect | MC4R antag conf |
| --- | --- | --- | --- | --- | --- | --- | --- | --- |
| COc1ccc(S(=O)(=O)N[C@@H]2CC[C@H](CCNC(=O)Cc3ccccn3)O[C@@H]2CO)cc1 | . | . | . | . | . | 12 | . | . |
| CCOC(=O)c1ccc(NC(=O)N2CCN(c3ccccn3)CC2)cc1 | -6 | -1 | -1 | 7 | 2 | -11 | . | . |
